Experimental data published in patent US11014933B2 (priority 2018, dated 2021).

Amino acid sequences for entries named in this document (tags omitted).
UniProt P33535, whole entry: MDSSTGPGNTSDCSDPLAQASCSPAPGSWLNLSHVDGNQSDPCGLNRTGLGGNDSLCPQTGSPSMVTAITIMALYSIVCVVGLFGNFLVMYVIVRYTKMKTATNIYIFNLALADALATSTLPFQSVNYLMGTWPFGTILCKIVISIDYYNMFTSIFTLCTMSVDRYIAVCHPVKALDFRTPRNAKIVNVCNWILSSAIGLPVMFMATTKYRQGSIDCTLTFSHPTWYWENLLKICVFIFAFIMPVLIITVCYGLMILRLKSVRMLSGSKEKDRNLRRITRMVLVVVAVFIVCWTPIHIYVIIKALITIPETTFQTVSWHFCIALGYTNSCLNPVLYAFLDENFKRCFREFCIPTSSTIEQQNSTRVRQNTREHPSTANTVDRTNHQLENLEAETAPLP

Molecular target: rat MOR (Rattus norvegicus, UniProt P33535)
Assay: MOR internalization in N2A-HA-rMOR cells
Type: cell-based
Settings: NFP and etorphine incubated together, 10 μM respectively

In the case of `O=C(N[C@@H]1CC[C@@]2(O)[C@H]3Cc4ccc(O)c5c4[C@@]2(CCN3CC2CC2)[C@H]1O5)c1ccncc1F` [Compound 1], the “Effect on etorphine-induced internalization of the MOR” value is reported as “internalization of the MOR induced by etorphine was reduced”.
